Source: patent US20210101879A1, “AMYLOID PROTEIN-SELECTIVE BACE INHIBITORS (ASBIs) FOR ALZHEIMER?S DISEASE” (The Regents of the University of California, priority 2018, published 2021)

Chains of the proteins cited; added tags and fusions are not shown. Residues count along the entry.
UniProt P56817, 46-501 limits assumed: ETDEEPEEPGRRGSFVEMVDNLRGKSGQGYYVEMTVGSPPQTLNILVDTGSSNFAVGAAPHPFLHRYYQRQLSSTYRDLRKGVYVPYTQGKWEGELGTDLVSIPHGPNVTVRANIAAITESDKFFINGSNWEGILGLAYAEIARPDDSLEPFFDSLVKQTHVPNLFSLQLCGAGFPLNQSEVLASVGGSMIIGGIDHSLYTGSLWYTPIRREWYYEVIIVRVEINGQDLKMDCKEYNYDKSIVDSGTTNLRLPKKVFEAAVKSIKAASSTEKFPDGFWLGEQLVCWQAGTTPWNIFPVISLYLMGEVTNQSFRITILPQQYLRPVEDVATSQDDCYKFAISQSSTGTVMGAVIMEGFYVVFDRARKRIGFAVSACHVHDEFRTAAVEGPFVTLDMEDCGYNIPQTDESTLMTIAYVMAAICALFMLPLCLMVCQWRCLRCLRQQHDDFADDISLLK

Tests used:
[1] = molecular target: BACE-1 (Homo sapiens (Human), UniProt P56817); assay: cell-free BACE enzyme assay with P5-P5′ substrate; assay type: biochemical; settings: for BACE inhibition in the P5-P5′ assay (dose-response): enantiomer peaks of FAH-65
[2] = tested on: CHO-7W cells (stably transfected with human amyloid precursor protein wildtype); assay: CHO-7W cell assay (AlphaLISA of media); assay type: cell-based, Chinese hamster; settings: treatment for 24 hours
Experimental: For the assay, 50 μL of CHO-7W cells were added to each well at 4×10^5 cells/mL. Then, 50 μL of inhibitor, prepared for tested concentrations, were added to appropriated wells and incubated for 24 hours at 37° C. Afterwards, media from each well is collected and assayed using an AlphaLISA assay for respective analytes.

## Cc1cc(C2(c3cccc(-c4cncnc4)c3)N=C(N)N(C)C2=O)ccc1OC(F)F (single isomer, unassigned)
[1]; listed as FAH-65 peak 1
  BACE inhibition in the P5-P5′ assay (dose-response): dose-response BACE inhibition
[1]; listed as FAH-65 peak 2
  BACE inhibition in the P5-P5′ assay (dose-response): did not
[1]; read-out: BACE1 IC50, cell-free, several replicate values per cell, some flagged 's' (flag not defined), listed as FAH-65 Pk2
  IC50: 5.2 nM and 7.9 nM
[2]
  amyloid-beta (Aβ): dose-response inhibition
  soluble amyloid precursor protein beta (sAPPβ): dose-response inhibition

Where “and” joins values, the source holds several entries; their conditions need not be identical. Equal entries are not always repeated.
